The values that follow are results of earlier work, collected in publication PMC10182956 (Archives of Toxicology, 2023).

The conditions of this series: human, published; ref Birkett and Miners 1991; Graham et al. 2011; Freedman and Somberg 1991; Vasudev et al. 2001; cited from earlier work.

Consider `Cn1c(=O)c2c(ncn2C)n(C)c1=O` [caffeine], for which the “In vivo Css” value was 10.8 to 53.6 µM.
